# Cyclic peptide permeability, from CycPeptMPDB

Collected by the curators of CycPeptMPDB (Li et al. 2023) from Furukawa et al. 2016, doi:10.1021/acs.jmedchem.6b01246.

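Conditions beyond the assay type are not listed; see the original paper. Other peptides of the study may be missing here. Entries at the database's floor value (log10 P of -10) are not listed.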

PAMPA is the parallel artificial membrane permeability assay, which has no cells and reads passive diffusion.
Values are log10 P with P in cm/s, so -5 is more permeable than -7.

{"smiles": "CCCC[C@@H]1NC(=O)[C@@H](CC(C)C)N(C)C(=O)CN(CC2CCOCC2)C(=O)[C@@H](Cc2ccccc2)NC(=O)CN(CCCOC(C)C)C(=O)[C@@H]2CCCN2C1=O", "PAMPA (log10 cm/s)": "-5.81"}
{"smiles": "CCCC[C@@H]1NC(=O)[C@@H](CC(C)C)NC(=O)CN(CC2CCCCC2)C(=O)[C@H](C)NC(=O)CN(CCCOC(C)C)C(=O)[C@@H]2CCCN2C1=O", "PAMPA (log10 cm/s)": "-5.29"}
{"smiles": "CCCC[C@@H]1NC(=O)[C@H](CC(C)C)NC(=O)CN(CC2CCOCC2)C(=O)[C@H](Cc2ccccc2)NC(=O)CN(Cc2ccc3c(c2)OCO3)C(=O)[C@H]2CCCN2C1=O", "PAMPA (log10 cm/s)": "-5.10"}
{"smiles": "CCCC[C@@H]1NC(=O)[C@H](CC(C)C)NC(=O)CN(CC2CCCCC2)C(=O)[C@@H](C)NC(=O)CN(Cc2ccc3c(c2)OCO3)C(=O)[C@@H]2CCCN2C1=O", "PAMPA (log10 cm/s)": "-5.39"}
{"smiles": "CCCC[C@@H]1NC(=O)[C@@H](CC(C)C)N(C)C(=O)CN(CC2CCOCC2)C(=O)[C@@H](C)NC(=O)CN(CCCOC(C)C)C(=O)[C@@H]2CCCN2C1=O", "PAMPA (log10 cm/s)": "-7.42"}
{"smiles": "CCCC[C@@H]1NC(=O)[C@@H](CC(C)C)N(C)C(=O)CN(CC2CCOCC2)C(=O)[C@H](Cc2ccccc2)NC(=O)CN(CCCOC(C)C)C(=O)[C@H]2CCCN2C1=O", "PAMPA (log10 cm/s)": "-5.03"}
{"smiles": "CCCC[C@@H]1NC(=O)[C@@H](CC(C)C)NC(=O)CN(CC2CCCCC2)C(=O)[C@@H](C)NC(=O)CN(CCCOC(C)C)C(=O)[C@H]2CCCN2C1=O", "PAMPA (log10 cm/s)": "-5.44"}
{"smiles": "CCCCCN1CC(=O)N(C)[C@H](CC(C)C)C(=O)N[C@@H](CCCC)C(=O)N2CCC[C@H]2C(=O)N(CCCOC(C)C)CC(=O)N[C@H](Cc2ccccc2)C1=O", "PAMPA (log10 cm/s)": "-4.86"}
{"smiles": "CCCCCN1CC(=O)N[C@@H](CC(C)C)C(=O)N[C@@H](CCCC)C(=O)N2CCC[C@H]2C(=O)N(CCCOC(C)C)CC(=O)N[C@@H](C)C1=O", "PAMPA (log10 cm/s)": "-6.11"}
{"smiles": "CCCC[C@@H]1NC(=O)[C@H](CC(C)C)NC(=O)CN(CC2CCCCC2)C(=O)[C@H](C)NC(=O)CN(CCCOC(C)C)C(=O)[C@H]2CCCN2C1=O", "PAMPA (log10 cm/s)": "-5.49"}
{"smiles": "CCCCCN1CC(=O)N[C@H](CC(C)C)C(=O)N[C@@H](CCCC)C(=O)N2CCC[C@@H]2C(=O)N(CCCOC(C)C)CC(=O)N[C@@H](C)C1=O", "PAMPA (log10 cm/s)": "-5.26"}
{"smiles": "CCCCCN1CC(=O)N[C@H](CC(C)C)C(=O)N[C@@H](CCCC)C(=O)N2CCC[C@@H]2C(=O)N(CCCOC(C)C)CC(=O)N[C@@H](Cc2ccccc2)C1=O", "PAMPA (log10 cm/s)": "-4.81"}
{"smiles": "CCCCCN1CC(=O)N[C@@H](CC(C)C)C(=O)N[C@@H](CCCC)C(=O)N2CCC[C@H]2C(=O)N(CCCOC(C)C)CC(=O)N[C@@H](Cc2ccccc2)C1=O", "PAMPA (log10 cm/s)": "-4.92"}
{"smiles": "CCCC[C@@H]1NC(=O)[C@H](CC(C)C)NC(=O)CN(CC2CCCCC2)C(=O)[C@H](C)NC(=O)CN(Cc2ccc3c(c2)OCO3)C(=O)[C@@H]2CCCN2C1=O", "PAMPA (log10 cm/s)": "-5.19"}
{"smiles": "CCCC[C@@H]1NC(=O)[C@H](CC(C)C)NC(=O)CN(CC2CCCCC2)C(=O)[C@H](C)NC(=O)CN(CCCOC(C)C)C(=O)[C@@H]2CCCN2C1=O", "PAMPA (log10 cm/s)": "-5.70"}
{"smiles": "CCCCCN1CC(=O)N(C)[C@H](CC(C)C)C(=O)N[C@@H](CCCC)C(=O)N2CCC[C@@H]2C(=O)N(Cc2ccc3c(c2)OCO3)CC(=O)N[C@H](C)C1=O", "PAMPA (log10 cm/s)": "-5.10"}
{"smiles": "CCCCCN1CC(=O)N(C)[C@H](CC(C)C)C(=O)N[C@@H](CCCC)C(=O)N2CCC[C@@H]2C(=O)N(CC)CC(=O)N[C@H](Cc2ccccc2)C1=O", "PAMPA (log10 cm/s)": "-5.01"}
{"smiles": "CCCCCN1CC(=O)N[C@@H](CC(C)C)C(=O)N[C@@H](CCCC)C(=O)N2CCC[C@H]2C(=O)N(CCCOC(C)C)CC(=O)N[C@H](C)C1=O", "PAMPA (log10 cm/s)": "-6.45"}
{"smiles": "CCCC[C@@H]1NC(=O)[C@H](CC(C)C)NC(=O)CN(CC2CCOCC2)C(=O)[C@@H](Cc2ccccc2)NC(=O)CN(CC)C(=O)[C@@H]2CCCN2C1=O", "PAMPA (log10 cm/s)": "-7.24"}
{"smiles": "CCCCCN1CC(=O)N[C@H](CC(C)C)C(=O)N[C@@H](CCCC)C(=O)N2CCC[C@H]2C(=O)N(Cc2ccc3c(c2)OCO3)CC(=O)N[C@H](Cc2ccccc2)C1=O", "PAMPA (log10 cm/s)": "-5.12"}
{"smiles": "CCCCCN1CC(=O)N(C)[C@@H](CC(C)C)C(=O)N[C@@H](CCCC)C(=O)N2CCC[C@@H]2C(=O)N(CC)CC(=O)N[C@@H](C)C1=O", "PAMPA (log10 cm/s)": "-5.32"}
{"smiles": "CCCCCN1CC(=O)N[C@@H](CC(C)C)C(=O)N[C@@H](CCCC)C(=O)N2CCC[C@H]2C(=O)N(CC)CC(=O)N[C@H](Cc2ccccc2)C1=O", "PAMPA (log10 cm/s)": "-5.53"}
{"smiles": "CCCC[C@@H]1NC(=O)[C@H](CC(C)C)NC(=O)CN(CC2CCOCC2)C(=O)[C@H](Cc2ccccc2)NC(=O)CN(Cc2ccc3c(c2)OCO3)C(=O)[C@@H]2CCCN2C1=O", "PAMPA (log10 cm/s)": "-5.34"}
{"smiles": "CCCCCN1CC(=O)N(C)[C@@H](CC(C)C)C(=O)N[C@@H](CCCC)C(=O)N2CCC[C@@H]2C(=O)N(Cc2ccc3c(c2)OCO3)CC(=O)N[C@@H](Cc2ccccc2)C1=O", "PAMPA (log10 cm/s)": "-6.67"}

Excerpt, the final 2 entries:

compound	PAMPA (log10 cm/s)
CCCC[C@@H]1NC(=O)[C@H](CC(C)C)NC(=O)CN(CC2CCOCC2)C(=O)[C@H](Cc2ccccc2)NC(=O)CN(Cc2ccc3c(c2)OCO3)C(=O)[C@@H]2CCCN2C1=O	-5.34
CCCCCN1CC(=O)N(C)[C@@H](CC(C)C)C(=O)N[C@@H](CCCC)C(=O)N2CCC[C@@H]2C(=O)N(Cc2ccc3c(c2)OCO3)CC(=O)N[C@@H](Cc2ccccc2)C1=O	-6.67